Experiments:
[1] = test system: SH-SY5Y and dSH-SY5Y cells

Ziram
cytotoxic sensitivity ([ATP] IC50) of LUHMES and/or dLUHMES relative to the other cell lines (LUHMES and dLUHMES cells): more sensitive than the other cell lines
relative cytotoxic sensitivity of LUHMES versus dLUHMES cells (LUHMES and dLUHMES cells): dLUHMES cells were markedly more sensitive than LUHMES cells
cytotoxic sensitivity of dSH-SY5Y cells relative to SH-SY5Y cells [1]: more sensitive
relative cytotoxic sensitivity of NSC versus dNSC (NSC and dNSC cells): the converse was true

Reference: article PMC5094908 (Journal of applied toxicology : JAT, 2016)
